## Ab-14 heavy chain CDR variants: yeast mating affinities

Data: MIT Lincoln Laboratory AlphaSeq set, Engelhart et al. 2022, doi:10.1038/s41597-022-01779-4, as distributed in FLAb.

Binding partner: SARS-CoV-2 spike HR2 peptide, sequence PDVDLGDISGINAS.

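Phage display of a naive human antibody library on the peptide gave the parent. The library (AAYL49) carries one to three amino acid substitutions per variant, with no insertions or deletions. AlphaSeq pools MATa yeast showing the antibodies with MATalpha yeast showing the peptide. After mating in shaken culture at 30 °C for 16 h, diploids were selected and their barcode pairs sequenced. Scores were corrected for input abundance and mapped to Kd with protein pairs of known affinity run in the same pool. Each pool was mated in three replicate cultures.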

The variants keep the light chain, the linker and the frameworks of Ab-14 (scFv order VH, a 15-residue (Gly4Ser)3 linker, VL).
VH: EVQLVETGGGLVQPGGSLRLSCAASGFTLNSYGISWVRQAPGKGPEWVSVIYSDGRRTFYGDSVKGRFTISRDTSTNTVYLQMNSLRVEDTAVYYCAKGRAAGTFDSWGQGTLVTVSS
VL: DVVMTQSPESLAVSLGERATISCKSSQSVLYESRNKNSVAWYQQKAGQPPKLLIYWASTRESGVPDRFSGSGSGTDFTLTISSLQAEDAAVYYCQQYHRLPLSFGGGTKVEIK

Changes read parent residue, position, new residue, counted from the first residue of the VH shown.
Affinities are written as log10 Kd with Kd in nM; a lower number is a better binder.
A pair that was not seen in that replicate is written "nd"; this usually means weak binding, but a binder can also be missed.
Three control strains display no target. For library AAYL49, 15% of the pairings with them gave a signal, with a median of 4.06 and one signal in twenty below 2.83, so weak values seen in few replicates may be background. Also given: how often the same scFv was detected with the empty control strains, with their mean in brackets.
In this assay the parent's reference entry averaged 0.65; its copy inside this library read 4.11 (one replicate of three).

changes	log10 Kd (nM) by replicate	signal with controls
Y32V/G33W/D62W	5.72 / 5.70 / 4.63	6/9 (4.12)
T28L/F59L/V64N	nd / 3.78 / nd	1/9 (2.78)
G33S/F105D	nd / nd / nd	0/9
G26L/A102T	nd / nd / nd	0/9
T28C/Y32H/T104Y	nd / nd / nd	0/9
G26H/R56A/T58W	nd / nd / nd	0/9
Y52S/D54Q/S63E	nd / nd / nd	0/9
S35R/Y52D/S53P	nd / nd / nd	0/9
G99F/R100F/T104A	nd / nd / nd	0/9
I51Y/Y52L/R56P	nd / nd / nd	1/9 (4.06)
S31H/V50Q/D106K	nd / nd / nd	3/9 (4.72)
R56Y/T58V/F105T	3.02 / 2.64 / 3.17	3/9 (4.40)
N30P/R57F/D106A	6.00 / 4.01 / 6.31	5/9 (4.43)
T28E	0.09 / 0.45 / 0.35	4/9 (4.84)
G26S/N30V/R100W	0.69 / 1.03 / 0.71	1/9 (2.78)
V50Q/G61P/G103A	nd / 2.95 / nd	2/9 (3.30)
K65E/T104L/D106M	1.00 / 1.19 / 0.93	0/9
G103R/F105S/D106T	1.08 / 1.27 / 1.29	1/9 (4.06)
S31G/I51R/Y60S	nd / 3.16 / nd	1/9 (5.38)
I51S/F59H/T104V	nd / nd / nd	0/9
S31P/G61A	2.65 / 2.84 / 3.87	1/9 (3.67)
V50C/A101K/D106K	nd / nd / nd	1/9 (3.73)
Y32R/Y52D/R57T	3.39 / nd / nd	1/9 (2.21)
S63M/A101Q/T104S	1.20 / 1.38 / 1.77	1/9 (3.77)
F27C/Y32E/S63D	nd / nd / nd	0/9
F27R/N30L/S35H	3.74 / nd / 4.08	3/9 (4.52)
S53V/T58E/F59E	nd / 5.13 / nd	3/9 (3.89)
L29C/Y32T/R57A	nd / nd / nd	0/9
V50E/I51T/T104S	nd / 3.23 / nd	0/9
R57A/G99A/D106C	2.80 / nd / nd	0/9
T28Q/Y52Q/R100W	3.88 / nd / nd	0/9
L29W/N30I/K65N	nd / nd / nd	0/9
G26P/G33T/F105D	4.72 / 3.69 / nd	2/9 (4.13)
S63A/G99S/G103S	nd / nd / nd	2/9 (4.70)
T28L/I34A/Y60H	nd / nd / nd	1/9 (3.22)
N30V/Y32R/Y60Q	3.84 / 3.26 / nd	0/9
R56W/S63K/A102H	nd / nd / nd	0/9
R57G/F59L/S63G	nd / nd / nd	3/9 (3.82)
L29K/V50C/S63K	3.21 / nd / nd	0/9
S31L/G61R/S107V	nd / nd / nd	3/9 (3.81)
T28L/N30W	2.42 / 2.92 / 2.12	0/9
T28N/D106K/S107R	nd / nd / nd	0/9
S31D/Y32W/V64D	nd / nd / nd	0/9
I51T/R57S/F105D	5.44 / 4.28 / 5.48	5/9 (4.14)
I51V/R57V/D62H	nd / nd / nd	1/9 (4.29)
R100G/A102H/D106R	0.45 / 1.17 / 0.66	1/9 (4.63)

4 of these entries, quoted again:

changes	log10 Kd (nM) by replicate	signal with controls
T28Q/Y52Q/R100W	3.88 / nd / nd	0/9
S31G/I51R/Y60S	nd / 3.16 / nd	1/9 (5.38)
N30V/Y32R/Y60Q	3.84 / 3.26 / nd	0/9
V50E/I51T/T104S	nd / 3.23 / nd	0/9